Biological target: T1, human α4β2 nAChRs (Homo sapiens, UniProt P17787+P43681)
T1 construct: expressed in transfected cells
Assay type: cell-based
Settings: −80 mV
Experimental: HEK 293 cells stably expressing human α4β2 nAChRs were cultured by standard methods (Di Resta et al., [2010]). In brief, cultures were maintained in Dulbecco's modified Eagle's medium (Hyclone Laboratories), supplemented with 10% fetal calf serum (Hyclone), 4.5 g/l glutamine, […] hygromycin β, and 0.25 μg/ml amphoterycin B. Cells were grown at 37°C and 5% CO2. For patch-clamp experiments, cells were harvested by treatment with trypsin and plated onto 35 mm Petri dishes (Corning Inc.).
Cells were voltage-clamped by using the whole-cell configuration of the patch-clamp method. Currents were registered with an Axopatch 200B amplifier (Molecular Devices), at room temperature (20–22°C). Micropipettes (3–4 MΩ) were pulled from borosilicate capillaries (GMBH) with a P-97 Flaming/Brown Micropipette Puller (Sutter Instrument Co.). The cell capacitance and series resistance (up to about 75%) were always compensated. Currents were low-pass filtered at 2 kHz and acquired on-line at 5–10 kHz with Molecular Devices hardware and software (pClamp 8 and Axoscope 8). […]
Data were analyzed with Clampfit 9.2 (Molecular Devices) and OriginPro 9 (OriginLab Co.). Theoretical curves best fitting the data were determined by a nonlinear least-squares method (Levenberg-Marquardt algorithm). […]

Sequences of proteins named here, by UniProt entry; tags and fusion partners are left off. Residues count along the entry.
UniProt P17787, 26-502: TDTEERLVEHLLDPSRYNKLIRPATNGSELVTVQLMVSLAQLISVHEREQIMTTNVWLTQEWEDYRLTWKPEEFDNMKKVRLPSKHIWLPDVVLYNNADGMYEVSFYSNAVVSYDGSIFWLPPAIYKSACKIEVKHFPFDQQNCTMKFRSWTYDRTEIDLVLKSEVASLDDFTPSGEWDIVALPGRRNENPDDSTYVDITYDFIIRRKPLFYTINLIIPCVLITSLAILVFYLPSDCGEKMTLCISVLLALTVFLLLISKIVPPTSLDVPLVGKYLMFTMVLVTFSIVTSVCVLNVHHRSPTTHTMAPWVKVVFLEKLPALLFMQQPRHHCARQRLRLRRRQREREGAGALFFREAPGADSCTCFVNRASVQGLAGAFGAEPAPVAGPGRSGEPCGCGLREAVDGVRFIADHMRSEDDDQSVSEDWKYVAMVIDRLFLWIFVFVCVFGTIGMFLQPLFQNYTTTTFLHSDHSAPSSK
UniProt P43681, 29-627 limits assumed: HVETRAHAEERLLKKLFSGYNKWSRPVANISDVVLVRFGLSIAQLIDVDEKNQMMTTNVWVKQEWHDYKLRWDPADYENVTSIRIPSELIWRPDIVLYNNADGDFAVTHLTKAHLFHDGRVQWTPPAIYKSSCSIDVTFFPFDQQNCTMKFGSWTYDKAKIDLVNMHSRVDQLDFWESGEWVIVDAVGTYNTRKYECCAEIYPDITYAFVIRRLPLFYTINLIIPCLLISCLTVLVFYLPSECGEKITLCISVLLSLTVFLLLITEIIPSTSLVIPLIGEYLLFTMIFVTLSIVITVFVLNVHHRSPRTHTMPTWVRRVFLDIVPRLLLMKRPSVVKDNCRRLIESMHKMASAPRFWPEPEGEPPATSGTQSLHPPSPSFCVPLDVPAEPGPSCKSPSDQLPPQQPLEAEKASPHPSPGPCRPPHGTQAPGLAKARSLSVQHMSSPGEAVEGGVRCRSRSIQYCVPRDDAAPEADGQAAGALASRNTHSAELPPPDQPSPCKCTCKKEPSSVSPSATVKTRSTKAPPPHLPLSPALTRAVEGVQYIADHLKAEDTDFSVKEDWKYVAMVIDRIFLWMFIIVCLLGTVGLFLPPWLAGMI

Compound: CO[C@H]1CC=C2CCN3CCC4=C(CC(=O)OC4)[C@]23C1 [DHβE, dihydro-β-erythroidine, reference compound]
- block of agonist-activated currents (1 μM DHβE, agonists NNK (10 μM), nicotine (300 μM), ACh (300 μM)): more than 90%
- average peak current density (10 μM NNK plus 1 μM DHβE, n = 9): 0.53 ± 0.199 pA/pF
